Assays:
[1] = biological target: T1, FABP1 (Mus musculus, UniProt P12710); experiment: NBD-AEA displacement from FABP1; assay type: binding, murine; details: displacement of FABP1-bound NBD-AEA (footnote b); 24°C; mean ± SEM, n=5; ND = no significant displacement
T1 sequence (P12710 1-127): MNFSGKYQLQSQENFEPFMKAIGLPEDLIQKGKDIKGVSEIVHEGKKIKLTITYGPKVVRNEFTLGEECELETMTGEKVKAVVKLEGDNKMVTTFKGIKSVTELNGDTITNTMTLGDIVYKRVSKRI

[2] = biological target: T1, FABP1; experiment: cis-parinaroyl-CoA displacement from FABP1; details: displacement of FABP1-bound cis-parinaroyl-CoA (footnote a); 24°C; mean ± SEM, n=5; ND = no significant displacement

Substance: SR-144528
- Ki [1]: did not displace
- Ki [2]: did not displace

From PMC5322802 (Biochemistry, 2016)
